Screens as filed in PubChem BioAssay.
In the library only some 1.9% were active in any assay of this set; here they are far more common.
PglD DTNB – C. jejuni PglD acetyltransferase inhibitors, primary screen, biochemical, DTNB colorimetric, single point | UDP-N-acetylbacillosamine N-acetyltransferase PglD (Campylobacter jejuni) | purified PglD enzyme, DTNB colorimetric CoA detection | inhibition, % at 12.5 µM | 360,000 compounds, 0.098% hits | AID 602405, 2012; in the data active = inhibition above about 16%, passing the limit was not always enough
ARNT-TACC3 inh – disruptors of ARNT/TACC3 protein interaction, primary screen, biochemical, AlphaScreen, single concentration. 390,000 compounds, 0.66% hits. AlphaScreen His-ARNT PAS-B/GST-TACC3 binding, luminescence; TACC3 fragment carries E629A point mutation. inhibition, % at 9.99 µM. AID 623870, 2012;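 active = mean inhibition of replicates at least 50% and at least half of replicates each reaching 50%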
ERp5 block – inhibitors of ERp5-driven insulin aggregation, primary screen, biochemical, turbidity, absorbance 650 nm, single point | Protein disulfide-isomerase A6 (Homo sapiens), Q15084 | 90 min | inhibition, % at 9.99 µM | 350,000 compounds, 0.05% hits | AID 651711, 2012;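 active = mean replicate inhibition above about 25%, with every replicate also reaching it, limit read from the data, passing the limit was not always enough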
FGF22 binding – binders of human FGF22 protein, primary screen, FGF22 synaptogenesis inhibitor project, biophysical, thermal shift, single point; recombinant FGF22 thermal shift, SYPRO orange fluorescence; percent of sucrose octasulfate shift, DMSO zero; activity (Tm shift, normalised), % at 9.99 µM; 340,000 compounds, 1.5% hits;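 active = mean Tm shift, scaled 0 neutral to 100 positive control, at about 1.3% or above, every replicate too, limit read from the data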
PDI turbidity – inhibitors of human PDI, primary screen, biochemical, turbidity, single point, plate reader; Protein disulfide-isomerase (Homo sapiens), P07237; PDI insulin aggregation turbidity, A650, 90 min; inhibition, % at 10 µM; 350,000 compounds, 0.052% hits; AID 588391, 2011;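 active = mean inhibition across replicates of 30% or more, whatever share of single replicates reach that level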
UUG fidelity – yeast start codon fidelity modulation | S. cerevisiae UUG-firefly luciferase reporter, luminescence/redox ratio | activity score, % at 18.7 µM | 350,000 tested, 0.13% active;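 active = replicate mean at a twofold rise or more, about +100% in these data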;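 also: firefly luciferase made from a UUG start codon reports start codon fidelity; reporter light over untreated wells divided by growth signal over untreated wells; some hits fall short of that in this replicate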
ARNT Alpha ctr-1 – AlphaScreen signal interference compounds, dose response, artefact control for ARNT-TACC3 interaction inhibitor project, biochemical, luminescence, cherry-pick; shares compounds with ARNT-TACC3 inh; His-ARNT PASB-GST AlphaScreen artifact counter-screen; AC50, µM (top dose mostly 68 µM); 1,200 compounds, 50% hits;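 active = every separate test run was called active for a drop in luminescence, with AC50 within twice the top valid dose, actives reach about 71 µM in these data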
ARNT Alpha ctr-2 – AlphaScreen signal interference by compounds, dose response, artefact control for ARNT/TACC3 disruptor project, biochemical, dual-tagged ARNT, dry powder; Dual-tagged His-ARNT PASB-GST AlphaScreen artifact counter-screen; 45 compounds, 70% hits; AC50, µM; AID 720564, 2013; shares compounds with ARNT-TACC3 inh;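 active = luminescence drop, with half-maximal potency fitted within twice the sample's top valid dose, cut at about 70 µM in these data; inactive = the rest, including signal moving the wrong way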
Numbers stand for hits; i = inactive; nt = no result given.

SMILES | PglD DTNB | ARNT-TACC3 inh | ERp5 block | FGF22 binding | PDI turbidity | UUG fidelity | ARNT Alpha ctr-1 | others
O=c1nccc(N/N=C/c2ccccc2O)[nH]1 | nt | i | i | i | i | nt | nt
COc1cccc(/C=N/NC(=O)c2ccc3nc[nH]c3c2)c1O | i | 63.4 | i | i | i | i | i
COc1cccc(/C=N/Nc2ccnc(=O)[nH]2)c1O | i | 56.7 | i | i | i | i | 59.6µM
CCOc1ccccc1/C=N/NC(=O)c1cccc(S(=O)(=O)N(CC)CC)c1 | i | i | i | i | i | i | nt
CCN(CC)c1ccc(/C=N/NC(=O)c2ccc3nc[nH]c3c2)c(O)c1 | i | 54.8 | nt | nt | i | i | 40.5µM
COc1ccc(/C=N/NC(=O)c2ccc3nc[nH]c3c2)c(OC)c1 | i | nt | i | i | i | i | nt
O=C(O)COc1ccccc1/C=N/NC(=O)c1cc(-c2ccc(Cl)cc2)nc2ccccc12 | i | 41.5 | i | i | i | i | 56µM
O=S(=O)(N[C@H]1CC[C@H](CCn2cc(-c3ccccn3)nn2)O[C@H]1CO)c1cccc(Cl)c1 | i | 62.8 | i | i | nt | i | 55.5µM
COc1cccc(S(=O)(=O)N[C@H]2CC[C@H](CCn3cc(-c4ccccn4)nn3)O[C@H]2CO)c1 | i | nt | i | i | nt | i | nt
O=S(=O)(N[C@@H]1CC[C@H](CCn2cc(-c3ccccn3)nn2)O[C@H]1CO)c1cccc(Cl)c1 | i | 68.7 | i | i | nt | i | 34µM
COc1ccc2c3c(n(C)c2c1)[C@H](CO)NCC31CCN(S(=O)(=O)c2ccc(C)cc2)CC1 | nt | nt | nt | i | nt | nt | nt
COc1ccc(OC)c(C(c2nnnn2C2CCCC2)N2CCc3ccccc3C2)c1 (centres undefined) | i | i | nt | nt | i | i | nt
COc1ccc(C(c2nnnn2C2CCCC2)N2CCc3ccccc3C2)cc1OC (centres undefined) | i | 58.0 | nt | nt | i | i | i
NNc1nc(-c2ccccc2)c2ccccc2n1 | nt | i | i | i | i | nt | nt
NNc1nnc(-c2ccccc2)c(-c2ccccc2)n1 | i | 52.3 | nt | nt | i | i | 50.5µM
CCOc1ccc(NC(=O)NCc2ccccn2)cc1 | i | i | i | i | i | i | nt
CCOc1ccc(NC(=O)CC(NCc2ccccn2)C(=O)O)cc1 (centres undefined) | nt | 64.8 | i | i | i | nt | 6.14µM
Oc1cccc(CN2CCOCC2)c1O | i | 14.9 | i | i | i | i | i
COC(=O)c1sc(N)c(C(=O)OC)c1Cn1ncc(Cl)c(Cl)c1=O | i | 51.9 | i | i | i | i | i
O=C(C[C@@H]1C=C[C@@H](NC(=O)C2CC2)[C@H](CO)O1)Nc1nccs1 | i | i | i | i | nt | i | nt
O=C(C[C@H]1C=C[C@@H](NC(=O)C2CC2)[C@@H](CO)O1)Nc1nccs1 | i | 33.9 | i | i | nt | i | i
O=C(O)CSCc1cn2cc(Cl)ccc2n1 | i | i | nt | nt | i | i | nt
CNCc1cn2cc(Cl)ccc2n1 | nt | 66.8 | nt | nt | i | nt | i
CCC(=O)N1CC2(C1)CN(S(C)(=O)=O)[C@@H](CO)c1[nH]c3cc(OC)ccc3c12 | nt | nt | i | i | nt | nt | nt
CC(=O)Nc1cccc(NC(=O)CSc2ccc(-c3ccccn3)nn2)c1 | nt | 58.0 | i | i | i | nt | 13.9µM
SMILES | PglD DTNB | ARNT-TACC3 inh | ERp5 block | FGF22 binding | PDI turbidity | UUG fidelity | ARNT Alpha ctr-1 | others
CC(=O)Nc1cccc(NC(=O)CSc2nnc3ccc(-c4ccccn4)nn23)c1 | i | i | i | i | i | i | nt
COc1cccc(NC(=O)CSc2ccc3nnc(-c4ccccn4)n3n2)c1 | i | i | i | i | i | i | nt
CC(=O)c1cccc(NC(=O)CSc2ccc(-c3ccccn3)nn2)c1 | i | 54.9 | i | nt | i | i | 15.2µM
COc1cc(NC(=O)CSc2ccc(-c3ccccn3)nn2)cc(OC)c1 | i | 58.5 | i | i | i | i | 11.3µM
Cc1cccc(NC(=O)CSc2ccc(-c3cccnc3)nn2)c1 | i | i | i | i | i | i | nt
Cc1ccc(NC(=O)CSc2ccc(-c3ccccn3)nn2)cc1F | i | 50.3 | i | i | i | i | i
Cc1noc(C)c1NC(=O)Nc1ccc2c(c1)CC(=O)N([C@@H](C)CO)C[C@@H](C)[C@H](CN(C)Cc1ccc(-c3ccccc3)cc1)O2 | nt | nt | i | i | nt | nt | nt
CO[C@@H]1CN(C)C(=O)c2cc(NS(=O)(=O)c3cccc(F)c3)ccc2OC[C@H](C)NC[C@@H]1C | i | i | i | i | nt | nt | nt
COc1ccc(C)cc1NC(=O)CSc1ccc(-c2ccccn2)nn1 | i | 54.0 | i | i | i | i | 18.5µM
CCCNC(=O)Nc1ccc2c(c1)OC[C@H](C)N(C(C)=O)C[C@@H](C)[C@@H](OC)CN(C)C2=O | i | i | i | i | nt | nt | nt
C[C@H](O)C#Cc1ccc2c(c1)O[C@@H](CN(C)CC1CC1)[C@H](C)CN([C@@H](C)CO)S2(=O)=O | nt | nt | nt | nt | nt | i | nt
CC1CCN(S(=O)(=O)c2ccc(C(=O)Nc3nnc(-c4ccno4)o3)cc2)CC1 | nt | nt | nt | nt | nt | nt | nt | ARNT Alpha ctr-2=i
CCOC(=O)N1CCN(S(=O)(=O)c2ccc(C(=O)Nc3nnc(C4CC4)o3)cc2)CC1 | nt | 61.2 | nt | nt | i | nt | i
N#Cc1ccc(C(=O)Nc2nnc(-c3ccccn3)o2)cc1 | i | 54.4 | i | i | i | i | i
CC1CCN(S(=O)(=O)c2ccc(C(=O)Nc3nnc(-c4ccccn4)o3)cc2)CC1 | nt | i | i | i | i | nt | nt | ARNT Alpha ctr-2=i
CC1CCN(S(=O)(=O)c2ccc(C(=O)Nc3ncccc3O)cc2)CC1 | i | i | i | i | i | i | nt
O=C(Nc1nnc(-c2ccncc2)o1)c1ccccc1 | nt | 51.6 | i | i | i | nt | i
O=C(Nc1nnc(-c2ccncc2)o1)c1ccccc1F | i | i | i | i | i | i | nt
CO[C@@H]1CN(C)C(=O)c2ccc(NC(=O)NC(C)C)cc2OC[C@H](C)N(CC2CC2)C[C@H]1C | i | i | i | i | nt | i | nt
COc1cccc(C#Cc2ccc([C@H]3[C@@H](CO)N4C(=O)CN(C(=O)C5CC5)C[C@H]34)cc2)c1 | nt | nt | i | nt | nt | nt | nt
O=C(Nc1ccc2c(c1)OCO2)c1ccc2c(c1)OCO2 | nt | 52.2 | nt | nt | i | nt | i
O=C(Nc1ccc(F)c(F)c1)c1ccc2c(c1)OCO2 | i | i | nt | nt | i | i | nt
